In assay [1] the target is T1, Alpha-1A adrenergic receptor (Homo sapiens, UniProt P35348).
T1 sequence (P35348 whole entry): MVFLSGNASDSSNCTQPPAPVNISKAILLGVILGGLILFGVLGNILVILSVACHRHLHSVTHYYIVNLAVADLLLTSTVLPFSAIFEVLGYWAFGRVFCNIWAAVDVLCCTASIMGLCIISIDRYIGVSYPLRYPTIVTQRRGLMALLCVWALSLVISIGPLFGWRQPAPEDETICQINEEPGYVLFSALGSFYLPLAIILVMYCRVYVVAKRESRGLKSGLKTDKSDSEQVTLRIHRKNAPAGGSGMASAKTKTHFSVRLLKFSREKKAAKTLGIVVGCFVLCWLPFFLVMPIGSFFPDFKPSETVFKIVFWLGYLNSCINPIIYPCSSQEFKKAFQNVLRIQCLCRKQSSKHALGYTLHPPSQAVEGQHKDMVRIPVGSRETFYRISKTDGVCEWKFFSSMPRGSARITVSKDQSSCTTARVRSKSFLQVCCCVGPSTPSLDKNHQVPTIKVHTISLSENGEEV
As to the kind of experiment: Binding constant measured against Alpha-1A adrenergic receptor in human prostate; ++:moderately active. Format: tissue-based, Prostate gland.

Assay [2] concerns the target T1, Alpha-1A adrenergic receptor. As to the kind of experiment: Binding constant measured against Alpha-1A adrenergic receptor in human prostate; +:inactive. It is filed as tissue-based, Prostate gland.

Among the data in ChEMBL document CHEMBL1144284, “Pharmacophore identification of alpha(1A)-adrenoceptor antagonists” (Bioorg Med Chem Lett, 2005) are Ki values, retold here.

In general, Ki refers to a measure of affinity in units of concentration, obtained from inhibition or displacement. Read a high Ki as a looser hold on the target.

With `Cc1c[nH]c(=O)n(CCCN2CCN(c3ccc(F)cc3OCC(F)(F)F)CC2)c1=O`, in assay [1], the Ki came out at 1.3 nM.

The compound `O=C1CC2(CCCC2)CC(=O)N1CCN1CCN(c2cc(Cl)ccc2Cl)CC1` came in with a Ki in assay [2] of 130 nM. That is a sub-micromolar value.
